PDI inh – inhibitors of human PDI, primary screen, biochemical, turbidity, single point, plate reader; Protein disulfide-isomerase (Homo sapiens), P07237; AID 588391, 2011; inhibition, % at 10 µM; 0.052% of 350,000 active; PDI insulin aggregation turbidity, A650, 90 min;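 active = mean inhibition across replicates of 30% or more, whatever share of single replicates reach that level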
PglD DTNB – C. jejuni PglD acetyltransferase inhibitors, primary screen, biochemical, DTNB colorimetric, single point; inhibition, % at 12.5 µM; purified PglD enzyme, DTNB colorimetric CoA detection; UDP-N-acetylbacillosamine N-acetyltransferase PglD (Campylobacter jejuni); 0.098% of 360,000 active; in the data active = inhibition above about 16%, passing the limit was not always enough
UUG fidelity – alters start codon recognition fidelity in yeast | S. cerevisiae UUG-firefly luciferase reporter, luminescence/redox ratio | activity score, % at 18.7 µM | 350,000 compounds, 0.13% hits | AID 602363;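 active = replicate mean at a twofold rise or more, about +100% in these data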;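 note: firefly luciferase made from a UUG start codon reports start codon fidelity; reporter light over untreated wells divided by growth signal over untreated wells; some hits fall short of that in this replicate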
FGF22 binding-1 – binders of human FGF22 protein, primary screen, FGF22 synaptogenesis inhibitor project, biophysical, thermal shift, single point; Fibroblast growth factor 22 (Homo sapiens), Q9HCT0; 1.5% of 340,000 active; activity (Tm shift, normalised), % at 9.99 µM; recombinant FGF22 thermal shift, SYPRO orange fluorescence; percent of sucrose octasulfate shift, DMSO zero;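 active = mean Tm shift, scaled 0 neutral to 100 positive control, at about 1.3% or above, every replicate too, limit read from the data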
ARNT-TACC3 inh – disruptors of ARNT/TACC3 protein interaction, primary screen, biochemical, AlphaScreen, single concentration; Transforming acidic coiled-coil-containing protein 3 (Homo sapiens), Q9Y6A5; AlphaScreen His-ARNT PAS-B/GST-TACC3 binding, luminescence; TACC3 fragment carries E629A point mutation; inhibition, % at 9.99 µM; 0.66% of 390,000 active; AID 623870, 2012;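 active = mean inhibition of replicates at least 50% and at least half of replicates each reaching 50%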
ERp5 inh – inhibitors of ERp5-driven insulin aggregation, primary screen, biochemical, turbidity, absorbance 650 nm, single point. Protein disulfide-isomerase A6 (Homo sapiens), Q15084. 90 min. AID 651711, 2012. 0.05% of 350,000 active. inhibition, % at 9.99 µM;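 active = mean replicate inhibition above about 25%, with every replicate also reaching it, limit read from the data, passing the limit was not always enough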
FGF22 binding-2 – binders of human FGF22 protein, dose response, FGF22 synaptogenesis inhibitor project, biophysical, thermal shift, cherry-pick retest | shares compounds with FGF22 binding-1 | thermal shift activity, °C (ΔTm) at 38 µM | AID 720646, 2013 | 2% of 1,000 active | recombinant FGF22 thermal shift, SYPRO orange fluorescence;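 active = fitted rise in melting shift crosses a set limit at or below the top valid dose tested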
SYPRO no-protein – compound-only thermal shift signal without protein, dose response, artefact control for FGF22 binder project, biochemical, cherry-picked samples, RT-PCR instrument; shares compounds with FGF22 binding-1; compound-only SYPRO orange thermal shift counter-screen, no protein; AC50, µM (highest dose often 38 µM); 2% of 1,000 active; AID 743019, 2013;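 active = rising signal whose fitted curve reaches the 0.54 level within the top valid dose, showing a melting point, actives reach about 13 µM in these data; inactive = the rest, including activity in the opposite direction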; also: value is where the raw curve crosses a fixed level and not half-maximal
Each line names hits and unclear results; the compound was inactive in the other large screens (follow-up assays come after a bar, where they were run); ! = not confirmed by another sample. Only some compounds are listed: those with a hit (about 1.9% of all), similar ones and a draw of the others.

Cc1ccc2[nH]c3ccccc3c(=O)c2c1	none
COc1ccc(S(=O)(=O)Nc2ccc3c(c2)C(=O)N([C@H](C)CO)C[C@H](C)[C@H](CN(C)Cc2ccc4c(c2)OCO4)O3)cc1	none (no result: PDI inh)
CCN1C(=O)C(CC(=O)Nc2ccc(OC)cc2)N(Cc2ccc(OC)c(OC)c2)C1=S (centres undefined)	none (no result: FGF22 binding-1, ARNT-TACC3 inh)
CCN1C(=O)C(CC(=O)Nc2ccc(OC)cc2)N(Cc2ccc3c(c2)OCO3)C1=S (centres undefined)	FGF22 binding-1 2.0 (no result: PglD DTNB, UUG fidelity) | FGF22 binding-2 inactive | SYPRO no-protein inactive
CCN1C(=O)C(CC(=O)Nc2ccc(OC)cc2)N(CCc2ccc(OC)cc2)C1=S (centres undefined)	FGF22 binding-1 1.6 (no result: PglD DTNB, UUG fidelity) | FGF22 binding-2 inactive | SYPRO no-protein inactive
CCOc1ccc(NC(=O)CC2C(=O)N(C)C(=S)N2Cc2ccc3c(c2)OCO3)cc1 (centres undefined)	none (no result: FGF22 binding-1, ERp5 inh)
COc1cc(/C=N/NC(=O)c2ccncc2)ccc1OCC(=O)Nc1cccc([N+](=O)[O-])c1	FGF22 binding-1 1.9 | FGF22 binding-2 inactive | SYPRO no-protein inactive
CO[C@H](CN(C)S(=O)(=O)c1cccc(Cl)c1)[C@H](C)CN([C@H](C)CO)S(=O)(=O)c1ccc(Cl)cc1	none (no result: PDI inh, UUG fidelity)
CO[C@@H](CN(C)S(=O)(=O)c1ccc(Cl)cc1)[C@@H](C)CN([C@H](C)CO)S(=O)(=O)c1cccc(Cl)c1	FGF22 binding-1 1.4 (no result: PDI inh, UUG fidelity) | FGF22 binding-2 inactive | SYPRO no-protein inactive
CO[C@@H](CN(C)S(=O)(=O)c1cccc(Cl)c1)[C@@H](C)CN([C@@H](C)CO)S(=O)(=O)c1cccc(Cl)c1	FGF22 binding-1 1.5 (no result: PDI inh, UUG fidelity) | FGF22 binding-2 inactive | SYPRO no-protein inactive
CO[C@@H](CN(C)S(=O)(=O)c1ccc(Cl)cc1)[C@@H](C)CN([C@@H](C)CO)S(=O)(=O)c1cccc(Cl)c1	none (no result: PDI inh, UUG fidelity)
CCN(C[C@H]1[C@H](c2ccc(C3=CCCC3)cc2)[C@H](CO)N1C(C)=O)C(C)=O	none (no result: PDI inh, FGF22 binding-1, ERp5 inh)
C[C@H](CO)N1C[C@H](C)[C@H](CN(C)C(=O)Cc2ccccc2)OCCCC[C@H](C)Oc2ccc(NC(=O)NC3CCCCC3)cc2C1=O	none (no result: PDI inh, ERp5 inh)
C/C(CC(=O)Nc1ccc2c(c1)OCCO2)=N\NC(=O)COc1ccc(C)cc1	none
C/C(CC(=O)Nc1ccc2c(c1)OCCO2)=N\NC(=O)COc1ccc(C)cc1Br	FGF22 binding-1 2.9 | FGF22 binding-2 inactive | SYPRO no-protein inactive
C[C@@H]1CN([C@H](C)CO)C(=O)Cc2cc(NC(=O)Cc3cn(C)c4ccccc34)ccc2O[C@@H]1CN(C)Cc1ccc(-c2ccccc2)cc1	none (no result: PDI inh, PglD DTNB, UUG fidelity, ARNT-TACC3 inh)
CC(C)c1ccc(NC(=O)Nc2nnc([C@H]3C[C@H](O)[C@@H](CO)O3)s2)cc1	FGF22 binding-1 26.0 (no result: ARNT-TACC3 inh) | FGF22 binding-2 inactive | SYPRO no-protein inactive
CCCN(C)C[C@H]1Oc2cc(C#Cc3ccc(F)cc3)ccc2S(=O)(=O)N([C@H](C)CO)C[C@@H]1C	FGF22 binding-1 1.7! | FGF22 binding-2 inactive | SYPRO no-protein inactive
CCCN(C)C[C@H]1Oc2cc(C#Cc3cccnc3)ccc2S(=O)(=O)N([C@H](C)CO)C[C@@H]1C	FGF22 binding-1 1.3 (no result: PDI inh) | FGF22 binding-2 inactive | SYPRO no-protein inactive
CCCN(C)C[C@@H]1Oc2cc(-c3ccncc3)ccc2S(=O)(=O)N([C@@H](C)CO)C[C@@H]1C	none (no result: PDI inh)
COc1ccccc1S(=O)(=O)N(C)C[C@@H]1Oc2cc(C#CCC(C)C)ccc2S(=O)(=O)N([C@@H](C)CO)C[C@H]1C	FGF22 binding-1 20.6 (no result: PDI inh) | FGF22 binding-2 inactive | SYPRO no-protein inactive
CCCN(C)C[C@H]1Oc2cc(-c3ccncc3)ccc2S(=O)(=O)N([C@H](C)CO)C[C@H]1C	FGF22 binding-1 2.1 (no result: PDI inh) | FGF22 binding-2 inactive | SYPRO no-protein inactive
C[C@H]1CN([C@@H](C)CO)C(=O)c2cccc(NS(=O)(=O)c3ccc(Cl)cc3)c2O[C@H]1CN(C)Cc1ccncc1	none (no result: PDI inh)
CCC(=O)N1CC[C@@H]2[C@H]1c1cc(-c3cccc(F)c3)ccc1N(C)[C@@H]2CO	none (no result: PDI inh, ERp5 inh)
COCC(=O)N(C)C[C@@H]1Oc2cc(C#Cc3ccccc3)ccc2S(=O)(=O)N([C@@H](C)CO)C[C@H]1C	FGF22 binding-1 1.6 (no result: PDI inh) | FGF22 binding-2 inactive | SYPRO no-protein inactive
COCC(=O)N(C)C[C@@H]1Oc2cc(C#Cc3ccccc3)ccc2S(=O)(=O)N([C@H](C)CO)C[C@H]1C	none (no result: PDI inh)
C[C@H](CO)N1C[C@H](C)[C@@H](CN(C)C)Oc2cc(C#CC3CCCCC3)ccc2S1(=O)=O	none (no result: PDI inh)
C[C@H]1CN([C@@H](C)CO)S(=O)(=O)c2ccc(C#CC3CCCCC3)cc2O[C@@H]1CN(C)C	FGF22 binding-1 1.3 (no result: PDI inh) | FGF22 binding-2 inactive | SYPRO no-protein inactive
C[C@H]1CN([C@@H](C)CO)C(=O)Cc2cc(NC(=O)C3CC3)ccc2O[C@@H]1CN(C)CC1CCCCC1	none (no result: PDI inh)
CC(OC(=O)c1ccccc1)C(=O)NCCC1=CCCCC1 (centres undefined)	FGF22 binding-1 1.6 | FGF22 binding-2 inactive | SYPRO no-protein inactive
O=C(C[C@H]1CC[C@H]2[C@@H](COC[C@H](O)CN2CC2CCOCC2)O1)NCC1CCCCC1	FGF22 binding-1 2.4 (no result: PDI inh, UUG fidelity) | FGF22 binding-2 inactive | SYPRO no-protein inactive
CN1CCN(C(=O)C[C@@H]2CC[C@H]3[C@@H](COC[C@H](O)CN3CC3CCCCC3)O2)CC1	FGF22 binding-1 24.0 (no result: PDI inh) | FGF22 binding-2 inactive | SYPRO no-protein inactive
C[C@@H]1CN([C@H](C)CO)C(=O)Cc2cc(NS(=O)(=O)c3cccs3)ccc2O[C@@H]1CN(C)C(=O)Nc1cccc2ccccc12	none (no result: PDI inh, ERp5 inh)
C[C@@H]1CN([C@@H](C)CO)C(=O)c2cc(C3=CCCC3)cnc2O[C@H]1CN(C)C	none (no result: PDI inh)
O=C1c2ccccc2C(=O)C1c1ccncc1	none (no result: FGF22 binding-1, ERp5 inh)
O=C1C(=O)C(c2ccccc2)C(=O)C1c1ccccc1 (centres undefined)	FGF22 binding-1 5.8 | FGF22 binding-2 inactive | SYPRO no-protein inactive

Source: PubChem BioAssay
